From patent publication US20240084003A1 (SIMCERE ZAIMING PHARMACEUTICAL, published 2024)

Biological target: T1, human CD22-ECD-His protein (human, UniProt P20273 20-687)
T1 construct: Recombinant, from HEK293E cells; also called hCD22-ECD-His; human CD22-His protein; not shown: His tag
T1 sequence: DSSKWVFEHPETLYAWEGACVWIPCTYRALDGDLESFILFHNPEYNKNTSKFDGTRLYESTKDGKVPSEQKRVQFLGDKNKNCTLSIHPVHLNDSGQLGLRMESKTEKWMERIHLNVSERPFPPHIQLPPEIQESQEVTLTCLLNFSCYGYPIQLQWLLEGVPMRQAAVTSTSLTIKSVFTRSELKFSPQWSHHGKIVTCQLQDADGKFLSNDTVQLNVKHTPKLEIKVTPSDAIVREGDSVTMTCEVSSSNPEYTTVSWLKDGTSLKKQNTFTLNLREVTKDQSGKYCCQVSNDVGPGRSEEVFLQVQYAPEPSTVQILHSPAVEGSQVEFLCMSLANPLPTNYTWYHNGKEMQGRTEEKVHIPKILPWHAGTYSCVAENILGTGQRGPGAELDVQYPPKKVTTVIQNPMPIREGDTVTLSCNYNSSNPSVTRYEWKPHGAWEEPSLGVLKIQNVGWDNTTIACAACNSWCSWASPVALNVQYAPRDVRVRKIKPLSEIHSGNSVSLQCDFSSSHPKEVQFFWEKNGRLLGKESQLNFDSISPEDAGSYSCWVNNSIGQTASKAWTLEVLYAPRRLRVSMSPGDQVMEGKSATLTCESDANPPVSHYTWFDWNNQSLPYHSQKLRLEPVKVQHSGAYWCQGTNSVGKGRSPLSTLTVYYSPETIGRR
Assay: SPR (Biacore), antibody captured on Protein A chip, CD22-ECD-His in solution
Procedure: Sample buffer and running buffer were HBS-EP+(10 mM HEPES, 150 mM NaCl, 3 mM EDTA, 0.05% surfactant P20) (GE Healthcare; BR-1006-69). The flow-through cell was set to 25° C. The sample block was set to 16° C. Both were pretreated with the running buffer. In each cycle, the antibody to be tested was first captured with a Protein A chip, then a single concentration of CD22 antigen protein was injected. The binding and dissociation process of the antibody and the antigen protein was recorded, and finally Glycine pH 1.5 (GE Healthcare; BR-1003-54) was used to complete chip regeneration. Binding was measured by injecting different concentrations of recombinant human CD22-ECD His protein in solution for 240 s with a flow rate of 30 μL/min. The concentration started from 200 nM (see the detailed results for the actual concentration in the test) and was diluted at 1:1, making a total of 5 concentrations. The dissociation phase was monitored for up to 600 s and was triggered by switching from sample solution to running buffer. The surface was regenerated by washing with a 10 mM of glycine solution (pH 1.5) for 30 s at a flow rate of 30 μL/min. Bulk refractive index difference was corrected by subtracting the response obtained from the goat anti-human Fc surface. Blank injection was also subtracted (=double reference). […]

- koff: 0.00244 s⁻¹
B1: F1.231.15 (antibody, IgG1, V domains shown)
VH: QVQLQQPGAELVKPGASVKLSCKTSGYTFTIYWMQWVKQRPGRGLEWIGRIDPHSGDTHYNENFTTKVTLTVDETSNTAYMHLSGLTSEDSAVYYCARRDYSYYVLDYWGQGTSVTVSS
VL: DVVLTQTPLSLPVSLGDQASISCRSSQSLVHINGDTYLHWYLQKPGQSPKLLIYTVFNRFSGVPDRFSGSGSGTDFTLKISRVEAEDLGAYFCSQSTHVPYTFGGGTKLEIKR
notes: Chimeric IgG1 kappa
